20 compounds from PubChem BioAssay AID588852 (The Scripps Research Institute Molecular Screening Center, 2011) can be followed below.

Protein sequences, listed by entry. Tags and fused reporters are not part of them. Lines headed by an entry give the natural chain unless they say otherwise; changes in a name come on top.
UniProt P11229: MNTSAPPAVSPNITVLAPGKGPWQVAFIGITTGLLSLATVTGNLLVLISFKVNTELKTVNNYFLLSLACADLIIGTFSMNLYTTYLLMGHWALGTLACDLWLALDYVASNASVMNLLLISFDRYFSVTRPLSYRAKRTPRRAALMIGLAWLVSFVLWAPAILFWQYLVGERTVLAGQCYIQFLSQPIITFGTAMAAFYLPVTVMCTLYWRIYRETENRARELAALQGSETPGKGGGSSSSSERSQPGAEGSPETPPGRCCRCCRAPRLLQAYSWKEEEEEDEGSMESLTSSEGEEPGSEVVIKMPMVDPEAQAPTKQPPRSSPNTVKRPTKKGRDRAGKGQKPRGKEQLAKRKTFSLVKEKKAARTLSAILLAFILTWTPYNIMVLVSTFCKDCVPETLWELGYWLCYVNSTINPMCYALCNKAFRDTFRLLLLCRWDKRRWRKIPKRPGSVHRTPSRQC

This is a selection; strong and weak results do not stand in their true shares. Active and inactive are the calls of the source.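 Rule for the calls: active = percent inhibition above its own plate's cutoff, namely the mean of that plate's compound wells plus 3 SD; inactive = the rest.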

The assay addresses Muscarinic acetylcholine receptor M1 (Homo sapiens) (UniProt P11229). The experiment in a line: human M1 muscarinic receptor antagonists, primary screen, CHO-K1 cells, Fluo-8 calcium fluorescence, 1536-well (AID 588852).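 Note: peak over basal fluorescence ratio during 140 s after agonist addition; 0% = ACh EC80 plus DMSO and 100% = DMSO alone without agonist.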 The settings on record: CHO-K1 hM1, Fluo-8 calcium fluorescence, ACh EC80 antagonist; at 3 µM; stronger effect = higher value.
Take `CCc1cc(O)c([N+](=O)[O-])c(C)c1[N+](=O)[O-]`: the inhibition was inactive: -17%.
As for `CCOc1ccc(C2=NCC(CBr)S2)cc1` (stereo not given), the figure is inactive: 0.69%; as for `O=P1(Nc2nc3ccc(Cl)cc3s2)COc2ccccc2O1` (stereo not given), inactive: -1.48%; as for `O=c1c2cc([N+](=O)[O-])ccc2[nH]c2c([N+](=O)[O-])cc([N+](=O)[O-])cc12`, inactive: 8.03%.
`CN(C)C(=O)Oc1noc2ccccc12`: the inhibition is inactive: -2.87%.
The result for `CC(NC(=O)COC(=O)C(O)(c1ccccc1)c1ccccc1)c1ccccc1` (stereo not given) reads inactive: 6.81%; that for `Cc1ccccc1OP(=O)(Nc1ccccn1)Oc1ccccc1C`, inactive: 13%; that for `CCN(C(=O)COC(=O)C(O)(c1ccccc1)c1ccccc1)c1c(N)n(Cc2ccccc2)c(=O)[nH]c1=O`, inactive: -9.18%.
With `CCC(=O)N1C2C3N(C(=O)CC)C1C1N(C(=O)CC)C(C(N1C(=O)CC)N3C(=O)CC)N2C(=O)CC`, the inhibition was inactive: -6.75%.
As for `Clc1ccc(N2CCN(Cc3c[nH]c4ncccc34)CC2)cc1`, the figure is inactive: -7.46%; as for `Cc1ccc(OP(=O)(Nc2ccccn2)Oc2ccc(C)cc2)cc1`, inactive: -0.82%.
As for `CC(=O)NC(SC(=S)N(CC(C)C)CC(C)C)C(Cl)(Cl)Cl` (stereo not given), the figure is inactive: -8.49%; as for `COC(=O)c1cc2c(s1)N=C(c1ccccc1)N(C)P2(=O)N1CCOCC1` (stereo not given), inactive: -15.5%; as for `CC1C(=O)OC2CCN3CC4OC4(COC(=O)C(C)(O)C1(C)O)C23` (stereo not given), inactive: -19.4%.
The result for `O=P1(N(CCCl)CCCl)OCCC2CCCCN21` (stereo not given) reads inactive: -20.4%; that for `C=C1C(=O)OC2CCN3CC=C(COC(=O)C(C)(O)C4(CO4)C1C)C23` (stereo not given), inactive: -0.58%; that for `Cc1ccc(NP(=O)(Oc2cccc(C)c2)Oc2cccc(C)c2)nc1`, inactive: -19.5%.
In the case of `c1ccc(-c2nn[nH]n2)c(-c2nn[nH]n2)c1`, the inhibition is inactive: -12.2%.
As for `CCNC(=S)/N=C(\N)N[N+](=O)[O-]`, the figure is inactive: -2.53%.
As for `O=C(NC1CCS(=O)(=O)C1)NP(=S)(Oc1ccccc1)Oc1ccccc1` (stereo not given), the figure is inactive: 12%.

The inhibition is the drop in the measured response relative to a control, in per cent.
